The results in this text go back to PMC5329011 (Frontiers in Neuroscience, 2017).

Test [1] concerns the target T1, apelin receptor (Homo sapiens, UniProt P35414).
T1 sequence (P35414 1-380): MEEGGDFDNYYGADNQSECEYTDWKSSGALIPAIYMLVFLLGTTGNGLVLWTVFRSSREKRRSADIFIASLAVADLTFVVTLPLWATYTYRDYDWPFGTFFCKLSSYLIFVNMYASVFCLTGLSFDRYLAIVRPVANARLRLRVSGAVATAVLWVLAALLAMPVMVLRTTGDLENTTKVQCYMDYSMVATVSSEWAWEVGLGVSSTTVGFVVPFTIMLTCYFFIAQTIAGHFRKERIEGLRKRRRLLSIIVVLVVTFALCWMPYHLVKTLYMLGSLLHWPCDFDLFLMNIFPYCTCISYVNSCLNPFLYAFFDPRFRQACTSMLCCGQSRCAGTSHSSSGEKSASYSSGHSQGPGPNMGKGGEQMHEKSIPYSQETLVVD
The test is described as follows: Inhibition of forskolin-stimulated cAMP accumulation (DiscoverX). Type of test: cell-based. The conditions noted are these: R9P and P9M up to 10 μM. As for the experimental part: (§1) Inhibition of cAMP accumulation, β-arrestin recruitment and receptor internalization by apelin isoforms, modified and truncated apelin peptides were studied using cells expressing the human apelin receptor (DiscoverX, CA, USA) as per the manufacturer's instructions. In all assays the resulting chemiluminescent signal was measured as relative light units (RLU) using a LumiLITE™ Microplate Reader (DiscoveRx, Fremont, CA). […] Agonist responses were expressed as a % of the forskolin response. […] Data were analyzed using a 4-parameter logistic equation using GraphPad Prism 6 to determine values of potency, pD2 (−log10 EC50, where EC50 is the concentration producing half maximal response) and maximum response (EMAX). n-Values are given as number of replicates/number of experiments.

Test [2] has as its target T1, apelin receptor. Briefly: β-arrestin recruitment assay (DiscoverX). The conditions noted are these: at 300 μM. Type of test: cell-based. Here is the method:
as §1

Test [3] addresses T1, apelin receptor. Briefly: Competition binding with [Glp65,Nle75,Tyr77][125I]apelin-13 in human left ventricle homogenate. Set-up: from tissue; host or cells: human left ventricle homogenate. The conditions noted are these: single concentration 1 μM peptide. As for the experimental part:
Assays were performed in human heart as previously described (Brame et al., [2015]). […] Equilibrium was broken by centrifugation (20,000 g for 10 min, 4°C) and pellets washed with Tris-HCl buffer (50 mmol/L, pH 7.4, 4°C), re-centrifuged and pellets counted for detection of bound radioactivity. Competition binding data were analyzed using GraphPad Prism 6 (GraphPad Software, Inc. La Jolla, CA, USA) to obtain values of pKi (the negative log10 of the dissociation constant derived from the IC50 for the competing ligands, the radioligand concentration and radioligand affinity by the Cheng and Prusoff equation). Experiments were performed in triplicate.
Measurements are mean ± standard error of the mean (SEM). […] Cell assay pD2 values were compared by one-way ANOVA followed by Tukey's multiple comparison test.

Turning to apelin-13(R9P), on apelin receptor [1], the “extent of inhibition of cAMP production” value is “incomplete”. The “completeness of β-arrestin concentration-response curve” value at apelin receptor [2] is listed as “incomplete”. The “% of specific binding competed for” value at apelin receptor [3] amounted to 38%.

Turning to apelin-13(P9M), on apelin receptor [1], the “extent of inhibition of cAMP production” value is listed as “incomplete”. Moreover, the “completeness of β-arrestin concentration-response curve” value at apelin receptor [2] is recorded as “incomplete”. Moreover, on apelin receptor [3], the “% of specific binding competed for” value was 62%.
